Key:
ORL-1 receptor = ORL-1 receptor (Homo sapiens (Human), UniProt P41146); assay: ORL-1 receptor activity in PerkinElmer ligand binding and cellular assays
[1] = water, 9 mol equivalents of HCl, 45° C., followed for 1 and 7 days

Sequences of proteins named here, by UniProt entry; tags and fusion partners are left off. A change or cut given only in a name is not applied to a line headed by its entry.
UniProt P41146: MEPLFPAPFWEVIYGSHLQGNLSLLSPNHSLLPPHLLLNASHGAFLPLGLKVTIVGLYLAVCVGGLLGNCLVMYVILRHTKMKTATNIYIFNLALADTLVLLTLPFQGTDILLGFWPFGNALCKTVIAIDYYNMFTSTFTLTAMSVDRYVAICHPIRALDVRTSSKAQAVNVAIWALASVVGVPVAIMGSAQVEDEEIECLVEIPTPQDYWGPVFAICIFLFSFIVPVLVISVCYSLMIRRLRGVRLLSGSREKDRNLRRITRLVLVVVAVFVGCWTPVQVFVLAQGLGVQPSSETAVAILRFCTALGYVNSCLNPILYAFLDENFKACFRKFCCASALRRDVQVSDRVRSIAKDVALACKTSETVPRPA

CC(C)(C)[C@@]1(C)OCO[C@]23CC[C@@]4(C[C@@H]21)[C@H]1Cc2ccc(O)c5c2[C@@]4(CCN1CC1CC1)[C@H]3O5 [listing 1 of 2 here]
ORL-1 receptor activity (ORL-1 receptor): shown ORL-1 receptor activity

CC(C)(C)[C@@]1(C)OCO[C@]23C=C[C@@]4(C[C@@H]21)[C@H]1Cc2ccc(O)c5c2[C@@]4(CCN1CC1CC1)[C@H]3O5
ORL-1 receptor activity (ORL-1 receptor): shown ORL-1 receptor activity

CC(C)(C)[C@@]1(C)OCO[C@]23CC[C@@]4(C[C@@H]21)[C@H]1Cc2ccc(O)c5c2[C@@]4(CCN1CC1CC1)[C@H]3O5 [listing 2 of 2 here]
stability in acidic conditions [1]: remained essentially stable

C=CCN1CC[C@]23c4c5ccc(O)c4O[C@H]2[C@@]24CC[C@@]3(C[C@@H]2[C@@](C)(C(C)(C)C)OCO4)[C@H]1C5
ORL-1 receptor activity (ORL-1 receptor): shown ORL-1 receptor activity
